Source: PubChem (Broad Institute)
Sampled rows, rich in hits. Any-hit rate of the full collection: about 1.7%.
CAL PDZ FP-1: blocks peptide binding to the human CAL PDZ domain. inhibition, % at 24.9 µM. purified CAL PDZ, TMR-peptide fluorescence polarization, 1 h. actives 0.92% (n = 300,000);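 active = mean inhibition of at least 30% with at least half of replicates also reaching 30%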;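 also: 0% = DMSO neutral control and 100% = excess unlabeled competitor peptide PRC23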
Dyrk1A ADPGlo: blocks rat Dyrk1A kinase activity | ADP-Glo luminescence, NFATc1 peptide | actives 0.43% (n = 310,000) | Q63470 | inhibition, % at 12.5 µM; in the data active = inhibition above about 50%;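 also: plate controls were vehicle with enzyme for no effect and no enzyme for full effect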
Yeast UUG start: alters start codon recognition fidelity in yeast; AID 602363; activity score, % at 18.7 µM; 350,000 tested, 0.13% active; S. cerevisiae UUG-firefly luciferase reporter, luminescence/redox ratio;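 active means replicate mean at a twofold rise or more, about +100% in these data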;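 further: firefly luciferase made from a UUG start codon reports start codon fidelity; reporter light over untreated wells divided by growth signal over untreated wells; some hits fall short of that in this replicate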
CAL PDZ FP-2: human CAL PDZ-peptide interaction inhibition. AID 504414. purified CAL PDZ, TMR-peptide fluorescence polarization, 1 h. Q9HD26. actives 0.02% (n = 330,000). inhibition, % at 20 µM;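 active = highest replicate inhibition of at least 40%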;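 also: plate controls were DMSO neutral control wells for no effect and unlabeled competitor peptide control wells for full effect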
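Test system: tagged CAL PDZ domain / Buffer or medium: sodium phosphate/NaCl buffer pH 7.4 with TCEP, IgG, Thesit / Reagent: TMR-labelled reporter peptide T*-PRC34 bound in PDZ groove / Compound dosing: single point, 20 µM / Schedule: 1 h incubation at room temperature before polarization reading / Technique: fluorescence polarization (mP) / Benchmarks: unlabelled peptide, DMSO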
dFosB act-1: activators of mouse delta FosB homodimer; P13346; purified delta FosB, TAMRA-CDK5 oligo fluorescence polarization; percent of positive-control signal above neutral wells; activation, % at 25 µM; actives 0.99% (n = 340,000);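 active = mean activation above about 17%, with every replicate also reaching it, limit read from the data, passing the limit was not always enough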
CDK5 inh: inhibitors of human CDK5/p35 kinase; Q00535+Q15078; actives 0.01% (n = 330,000); Recombinant CDK5/p35, ADP-Glo luminescence, 60 min; inhibition, % at 10 µM; AID 488839;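 active = highest replicate inhibition of at least 50% and at least 75% of replicates reaching 50%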;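 also: plate controls were DMSO neutral control for no effect and GW8510 at 10 µM for full effect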
dFosB act-2: delta FosB (mouse) homodimer activation; shares compounds with dFosB act-1; 2,400 tested, under 10 active; purified delta FosB, TAMRA-CDK5 oligo fluorescence polarization; normalised: neutral wells 0, positive control 100; activation, % at 24.9 µM;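 active = highest replicate activation at or above 34% and every replicate reaching that threshold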;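 also: higher polarization means more probe DNA bound by delta FosB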
An asterisk follows results filed as active; . = no result given.

SMILES | CAL PDZ FP-1 | Dyrk1A ADPGlo | Yeast UUG start | CAL PDZ FP-2 | dFosB act-1 | CDK5 inh | dFosB act-2
CCCc1cc(=O)[nH]c(SCC(=O)Nc2ccc(OCc3ccccc3)cc2)n1 | 2 | . | -15 | 1 | 28* | 0 | 0
CCCc1cc(=O)[nH]c(SCC(=O)Nc2cccc3ccccc23)n1 | -2 | -2 | -17 | -3 | 22* | -2 | 2
CCCc1cc(=O)[nH]c(SCC(=O)Nc2ccccc2C#N)n1 | -2 | 1 | -6 | -1 | -7 | -1 | .
COc1ccc(Cl)cc1NC(=O)c1[nH]c(C)c(C(C)=O)c1C | -3 | -2 | -28 | -1 | 36* | 3 | 4
COc1ccc(OC)c(NC(=O)c2[nH]c(C)c(C(C)=O)c2C)c1 | 0 | 1 | -11 | 0 | -8 | -1 | .
CCOC(=O)C1CCN(C(=O)c2ccc3c(=O)n4nc(Nc5cc(C)ccc5C)sc4nc3c2)CC1 | . | 4 | 4 | 1 | 15 | -1 | .
Cc1ccc(C)c(Nc2nn3c(=O)c4ccc(C(=O)NCc5cccnc5)cc4nc3s2)c1 | -1 | . | -19 | -2 | 99* | . | -1
CS(=O)(=O)N(Cc1ccc(Cl)cc1)c1ccc(C(=O)NCc2ccccn2)cc1 | -4 | 1 | -20 | -2 | -9 | -2 | .
CS(=O)(=O)N(Cc1ccc(Cl)cc1)c1ccc(C(=O)N/N=C/c2cc3ccccc3nc2Cl)cc1 | -11 | -4 | -13 | -4 | 41* | . | 7
CC(C)c1cc(C(=O)Nc2cc(Br)ccc2O)no1 | 2 | 0 | -9 | 1 | -4 | 2 | .
O=C(Nc1cc(Br)ccc1O)c1cc(-c2ccc3c(c2)OCO3)on1 | -3 | 1 | 1 | -1 | 77* | 2 | 1
COc1ccc(-c2cc(C(=O)Nc3ccc4c(c3)OCO4)no2)cc1OC | -1 | -2 | -12 | -2 | 7 | 0 | .

Fetched one by one from the entries so far, two records:
SMILES | CAL PDZ FP-1 | Dyrk1A ADPGlo | Yeast UUG start | CAL PDZ FP-2 | dFosB act-1 | CDK5 inh | dFosB act-2
COc1ccc(OC)c(NC(=O)c2[nH]c(C)c(C(C)=O)c2C)c1 | 0 | 1 | -11 | 0 | -8 | -1 | .
Cc1ccc(C)c(Nc2nn3c(=O)c4ccc(C(=O)NCc5cccnc5)cc4nc3s2)c1 | -1 | . | -19 | -2 | 99* | . | -1

A stretch from further up, as a working copy:
SMILES | CAL PDZ FP-1 | Dyrk1A ADPGlo | Yeast UUG start | CAL PDZ FP-2 | dFosB act-1 | CDK5 inh | dFosB act-2
CCCc1cc(=O)[nH]c(SCC(=O)Nc2ccc(OCc3ccccc3)cc2)n1 | 2 | . | -15 | 1 | 28* | 0 | 0
CCCc1cc(=O)[nH]c(SCC(=O)Nc2cccc3ccccc23)n1 | -2 | -2 | -17 | -3 | 22* | -2 | 2

Next section
SMILES | CAL PDZ FP-1 | Dyrk1A ADPGlo | Yeast UUG start | CAL PDZ FP-2 | dFosB act-1 | CDK5 inh | dFosB act-2
O=C(Nc1cc(Br)ccc1O)c1cc(-c2cccs2)on1 | 0 | -4 | -3 | -3 | 49* | -3 | -4
COc1ccc(NC(=O)c2cc(-c3ccc4c(c3)OCO4)on2)cc1OC | 1 | -1 | -7 | -1 | 33* | -1 | 2
O=C(Nc1ccc2c(c1)OCO2)N[C@@H]1CC[C@@H](CCNC(=O)C2CCC2)O[C@H]1CO | . | . | -5 | . | . | . | .
CCCNC(=O)C(Cc1ccc(OC)cc1)NC(=O)c1ccc(Cl)cc1 (configuration not stated) | -1 | -7 | -13 | -1 | -11 | 2 | .
COc1ccc(C(=O)NNC(=O)C(C)NC(=O)c2ccccc2NC(=O)c2ccco2)cc1 (configuration not stated) | -3 | -2 | . | -2 | 4 | -1 | .
COc1ccc(C(=O)Nc2ccccc2C(=O)NC(Cc2ccc(O)cc2)C(=O)NNC(=O)c2ccccc2Cl)cc1 (configuration not stated) | -3 | -9 | -1 | -2 | 42* | 0 | 5
O=C(Nc1ccccc1C(=O)NC(Cc1ccccc1)C(=O)NC1CCCCC1)c1ccccc1 (configuration not stated) | -3 | -7 | . | -2 | 21* | 1 | 5
COc1ccc(C(=O)NNC(=O)C(Cc2ccc(O)cc2)NC(=O)c2ccccc2NC(=O)c2ccc(OC)cc2)cc1 (configuration not stated) | -1 | -11 | 2 | -2 | 60* | -1 | 3
CCC(=O)NC(=S)Nc1ccc2oc(-c3ccc(OC)cc3)nc2c1 | 1 | 0 | . | -2 | 40* | 1 | 2
COc1ccc(-c2nc3cc(NC(=S)NC(=O)Cc4ccccc4)ccc3o2)cc1 | -2 | 1 | -16 | 0 | -5 | -1 | .
O=C(CCNC(=O)c1ccccc1Cl)Nc1cc(C(F)(F)F)ccc1Cl | 1 | -7 | . | -1 | 34* | -2 | 6
O=C(C[C@H]1C[C@@H]2c3cc(NC(=O)Nc4ccc(C(F)(F)F)cc4)ccc3O[C@@H]2[C@@H](CO)O1)NCc1ccc2c(c1)OCO2 | . | . | -6 | . | . | . | .
COc1ccc2c(Cl)c(C(=O)N/N=C/c3ccncc3)sc2c1 | . | 30 | -5 | -1 | 52* | -2 | 4
